Assay results reported in patent publication US9409907B2, “Inhibitor compounds” (Cancer Research Technology Limited, priority 2012, dated 2016).
Read-outs that look alike come from different tables or passages of the source.

Biological target: full length MPS1 (Homo sapiens (Human), UniProt P33981)
Experiment: Measurement of inhibition of MPS1 kinase (Caliper EZ reader mobility-shift enzyme assay)
Assay type: biochemical
Protocol: Measurement of Inhibition of MPS1 Kinase
The reaction was carried out for 60 min at room temperature and stopped by the addition of buffer (10 μl) containing 20 mM EDTA, 0.05% (v/v) Brij-35, in 0.1M HEPES-buffered saline (Free acid, Sigma, UK). The plate was read on a Caliper EZ reader II (Caliper Life Sciences).
The % inhibition of the compounds is calculated relative to the means of selected control wells.

SMILES | IC50 [nM] | IC50 (full length MPS1 12.5 nM or 3 nM, H236 peptide 5 μM, ATP 10 μM, 60 min at room temperature, read-out: MPS1 IC50) [nM]
COc1cc(-c2cnn(C)c2)ccc1Nc1ncc2ccnc(NCC(C)O)c2n1 (racemic) [Example 128, Racemic 1-(2-(2-Methoxy-4-(1-methyl-1H-pyrazol-4-yl)phenylamino)pyrido[3,4-d]pyrimidin-8-ylamino)propan-2-ol] | 8 | 
COc1cc(-c2cnn(C)c2)ccc1Nc1ncc2ccnc(N3CCOC(C)C3)c2n1 (racemic) [Example 137, Racemic N-(2-Mthoxy-4-(1-methyl-1H-pyrazol-4-yl)phenyl)-8-(2-methylmorpholino)pyrido[3,4-d]pyrimidin-2-amine] |  | 7
